# According to patent US7842488B2, “Polynucleotides encoding a human 3-phosphoinositide- dependent protein kinase” (Medical Research Council, priority 1997, dated 2010):
# Legend:
# PDK1 [1] = experiment: PDK1 assay: activation of GST-PKBα by purified PDK1 with phospholipid vesicles; type: biochemical, rabbit
# Method: Phospholipid vesicles comprising 1 mM PtdCho, 1 mM PtdSer and 0.1 mM PtdIns lipids were prepared, dried to a film under vacuum and resuspended with vortexing into 10 mM Hepes, pH 7.3. The cloudy solution of multilamellar and large unilamellar vesicles was bath-sonicated for 20 min, after which a clearer suspension of smaller unilamellar vesicles was obtained. […].
# Assay of PDK1. The assay was carried out in two stages; in the first, GST-PKBα was incubated with PDK1 in the presence of MgATP and phospholipid vesicles to permit activation of GST-PKBα.
# . After 10 min at 30° C., the reactions were terminated by spotting the reaction mixture on to p81 phosphocellulose paper. The papers were washed in phosphoric acid and analysed as described previously. A control reaction in which GST-PKBα was omitted was taken as the blank and was always less than 5% of the activity measured in the presence of GST-PKBα. The basal GST-PKBα activity is the activity measured in the absence of PDK1. […]
# PDK1 [2] = experiment: Phosphorylation of GST-PKBα by PDK1 with [γ32P]ATP; type: biochemical, rabbit; settings: PtdCho and PtdSer at 100 μM or in 10-fold excess; 30 min; read-out: concentration required for half maximal phosphorylation of GST-PKBα by PDK1
# Method: Phospholipid vesicles comprising 1 mM PtdCho, 1 mM PtdSer and 0.1 mM PtdIns lipids were prepared, dried to a film under vacuum and resuspended with vortexing into 10 mM Hepes, pH 7.3. The cloudy solution of multilamellar and large unilamellar vesicles was bath-sonicated for 20 min, after which a clearer suspension of smaller unilamellar vesicles was obtained. Solutions were stored at 4° C. at concentrations 10-fold higher than those required in the assay and used within 2-4 days.
# Phosphorylation of GST-PKB ? by PDK1. The incubations were identical to the Stage 1 described above except that [γ^32P] ATP (200-400 cpm/pmol) was used instead of unlabelled ATP. The reactions were terminated by making the solution 1% (by mass) in SDS. The samples were run on a 7.5% SDS-polyacrylamide gel and, after staining with Coomassie blue, the gels were autoradiographed. The Coomassie blue-staining bands corresponding to GST-PKBα were excised and the ^32P-radioactivity associated with each band was quantified.
# GST-PDK1 = target: T1, GST-PDK1 (Homo sapiens, UniProt O15530); experiment: GST-PDK1 assay: activation and phosphorylation of GST-PKBα; type: biochemical; settings: versus absence of PtdIns(3,4,5)P3 or PtdIns(3,4)P2
# T1 construct: Residues 52-556 of PDK1 were expressed in human embryonic kidney 293 cells; made in house; host or cells: human embryonic kidney 293 cells (pEBG2T)
# T1 sequence (O15530 52-556): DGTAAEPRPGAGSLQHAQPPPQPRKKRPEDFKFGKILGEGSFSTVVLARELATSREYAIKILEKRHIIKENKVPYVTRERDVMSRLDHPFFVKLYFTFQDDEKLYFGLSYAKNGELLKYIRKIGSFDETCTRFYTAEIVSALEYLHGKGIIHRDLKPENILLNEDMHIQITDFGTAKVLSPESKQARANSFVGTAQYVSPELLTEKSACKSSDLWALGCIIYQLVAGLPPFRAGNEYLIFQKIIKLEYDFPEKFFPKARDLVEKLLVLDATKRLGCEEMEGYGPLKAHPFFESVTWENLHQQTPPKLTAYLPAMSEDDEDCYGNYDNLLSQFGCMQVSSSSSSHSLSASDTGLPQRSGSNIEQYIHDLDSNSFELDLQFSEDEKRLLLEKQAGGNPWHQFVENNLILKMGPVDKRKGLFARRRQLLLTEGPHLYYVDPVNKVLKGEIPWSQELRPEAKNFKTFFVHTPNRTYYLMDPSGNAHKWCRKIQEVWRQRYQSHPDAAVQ
# Method: FIG. 12. […] In panels A and C, the assays were terminated by making the incubations 1% (by vol) in TRITON X-100™ (see Ref 21), and the increase in specific activity of GST-PKBα was determined. In panels B and D, the reactions were terminated by making the solutions 1% in SDS, the samples were subjected to SDS/polyacrylamide gel electrophoresis, and the phosphorylation was assessed by autoradiography of the Coomassie blue-stained band corresponding to GST-PKBα.
# One unit of PDK1 activity was defined as that amount required to increase the basal activity of GST-PKBα by 1 unit of activity in one min.
substance,measurement,setting,value
"Phosphatidylinositol 3,4,5-tris phosphate [PtdIns(3,4,5)P3]",fold less effective in activating PDK1 in the absence of PtdCho/PtdSer vesicles,"PDK1 [1]; 60 min assay, FIG. 3B",at least 15 fold
same,concentration with optimal effect on activation or phosphorylation of GST-PKBα by PDK1,PDK1 [1]; PtdCho and PtdSer at 100 μM or in 10-fold excess,10 µM
same,EC50,"PDK1 [1]; PtdCho and PtdSer at 100 μM or in 10-fold excess, 30 min, read-out: concentration required for half maximal activation of GST-PKBα by PDK1",1000 to 2000 nM
same,EC50,PDK1 [2],1000 to 2000 nM
same,fold enhancement of PDK1 activity in the presence of the inositol phospholipid,GST-PDK1,about 1000 fold
